Yeast mating assay B: variants of the scFv Ab-14

Binding partner: SARS-CoV-2 spike HR2 peptide, sequence PDVDLGDISGINAS.

Parent scFv Ab-14: VH joined to VL by the linker GGGGSGGGGSGGGGS. Changes lie in the light chain CDRs alone.
VH: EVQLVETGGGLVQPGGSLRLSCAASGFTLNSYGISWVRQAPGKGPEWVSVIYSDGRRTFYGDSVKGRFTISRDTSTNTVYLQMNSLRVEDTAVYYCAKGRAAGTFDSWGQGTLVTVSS
VL: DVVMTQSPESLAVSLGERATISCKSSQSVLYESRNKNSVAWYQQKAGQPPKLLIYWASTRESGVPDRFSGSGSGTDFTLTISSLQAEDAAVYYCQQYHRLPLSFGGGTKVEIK

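Phage display of a naive human antibody library on the peptide gave the parent. This is the validation round: designs drawn from the data on random variants, tested in the same kind of assay. Their group label is 14L_GP_Gen (GP: Gaussian process model; Gen: genetic algorithm; a sequence that several methods proposed may carry one label only). The assay is AlphaSeq: two haploid yeast populations carry antibody and antigen on their surface. After mating in shaken culture at 30 °C for 16 h, diploids were selected and their barcode pairs sequenced. A regression on co-assayed BCL2-family reference pairs converts the normalised counts of each replicate to an apparent Kd. Each pool was mated in six replicate cultures.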

Each variant is given by its three light chain CDRs, as the data file delimits them; those of the parent are KSSQSVLYESRNKNSVA, WASTRES, QQYHRLPLS. The read-out is the apparent dissociation constant on a log10 scale (nM): the lower, the stronger. Averages over replicates are reported, and they cover detected replicates only. The authors' rule: three or more of the six replicates give a measured affinity, fewer mean a poor binder. Background: pairings of all light chain designs with three empty control strains gave a value in 4% of cases (median 2.64, 5th percentile 1.59). Values in that range, when seen in few replicates, are hard to tell from nonspecific mating. Also given: how often the same scFv was detected with the empty control strains, with their mean in brackets. Values of this round are not directly comparable with the first-round values of the same sequences.

CDR-L1	CDR-L2	CDR-L3	replicates, log10 nM	log10 Kd (nM), mean	signal with controls
KLEQSQLYESRNKNAVA	NASTRES	QQYHRLPLS	-0.36 / -0.39 / -0.36 / -0.46 / -0.57 / -0.32	-0.41	1/18 (2.99)
KLSQSMGYESRNKNSVA	HASTRES	QQYHRLPLS	0.37 / 0.08 / -0.07 / 0.17 / 0.18 / 0.28	0.17	2/18 (1.92)
KLSQSMLYESRNKNSVA	NASTRSS	QQYHRLPLS	-0.19 / -0.19 / -0.37 / -0.32 / -0.29 / -0.22	-0.26	1/18 (2.64)
KLSQSDLYESRNKNSVA	HASTRES	QDYHRLPLS	1.07 / 1.94 / 0.95 / 1.79 / 1.07 / 1.08	1.32	0/18
KLSQSVLYESRNTNNVA	NASTRES	QQYHRLPLS	-0.10 / -0.14 / -0.34 / -0.39 / -0.48 / -0.17	-0.27	0/18
KLSQSDLYESRNSNNVA	NASTRES	QQYHRLPLS	0.00 / -0.24 / -0.29 / -0.33 / -0.06 / -0.19	-0.18	5/18 (3.09)
KLQQSELYESRNKNSVA	EASTRED	QQYHRLPLS	0.72 / 0.99 / 0.30 / 0.34 / 0.10 / 0.59	0.51	0/18
KLMQSMLYESRNKNSVA	DASQRES	QQYHRLPLS	-0.02 / -0.33 / -0.44 / -0.47 / -0.27 / -0.11	-0.28	1/18 (1.55)
KLQQSVGYESRNKNSVA	NASTRMS	QQYHRLPLS	0.15 / 0.35 / 0.04 / -0.08 / 0.25 / 0.01	0.12	1/18 (3.01)
KLDQSVLYESRNKNSVA	NASQRES	QQYHRLPLS	-0.32 / -0.53 / -0.56 / -0.62 / -0.64 / -0.42	-0.52	1/18 (3.17)
KLSGSWLYESRNKNSVA	NASTRES	QQYHRLPLS	0.44 / 0.17 / 0.31 / 0.15 / 0.44 / 0.12	0.27	0/18
KSSQSDLYESRNKNSVA	EASQRES	QQYHRLPLS	0.30 / -0.03 / 0.07 / -0.06 / -0.02 / 0.21	0.08	1/18 (4.59)
KLSQSVLYEDRNKNSVA	HASQRES	QQYHRLPLS	-0.81 / -0.67 / -0.88 / -0.95 / -0.53 / -0.77	-0.77	1/18 (1.34)
KVSQSWLYESRMKNSVA	NASQRES	QQYHRLPLS	0.05 / -0.25 / -0.32 / -0.19 / 0.17 / 0.02	-0.09	0/18
KLYQSVPYESRNKNSVA	NASTRES	QQYHRLPLS	-0.14 / -0.31 / -0.31 / -0.27 / 0.06 / -0.09	-0.18	0/18
KVSQSVLYESRMKNSVA	EASTRES	QQYHRLPLS	0.79 / 0.09 / 0.41 / -0.03 / -0.13 / 0.64	0.30	0/18
KLQQSELYESRNKNSVA	DASTRLS	QQYHRLPLS	0.17 / -0.18 / -0.26 / -0.25 / -0.16 / -0.01	-0.11	2/18 (2.10)
KLPQSFLYESRNKNSVA	NASTRES	QQYHRLPLS	-0.39 / -0.44 / -0.50 / -0.54 / -0.42 / -0.15	-0.41	0/18
KLSGSVLYESRNKNSVA	NASTRMS	QQYHRLPLS	-0.06 / -0.28 / -0.56 / -0.44 / -0.42 / -0.27	-0.34	0/18
KLSQSELYESRNKNSVA	EASQRES	QQYHRLPLS	0.11 / 0.09 / 0.02 / -0.30 / -0.32 / 0.12	-0.05	0/18
KVSQSVLGESRNKNSVA	NASTRES	QQYHRLPLS	0.25 / -0.23 / -0.18 / -0.11 / -0.19 / -0.09	-0.09	1/18 (2.02)
KLSQSMLYESRNWNSVA	NASQRLS	QQYHRLPLS	0.55 / 0.18 / 0.36 / 0.15 / 0.37 / 0.25	0.31	0/18
FLSQSVLYESRMKNSVA	NASTRES	QQYHRLPLS	-0.30 / -0.32 / -0.21 / -0.37 / -0.36 / -0.09	-0.27	2/18 (3.48)
KVSGSHLYESRNKNSVA	NASTRES	QQYHRLPLS	-0.11 / -0.02 / -0.09 / 0.17 / -0.17 / 0.00	-0.04	0/18
KLSQSVLYESRMKNSVA	NASTRMM	QQYHRLPLS	-0.01 / -0.43 / -0.33 / -0.26 / -0.17 / -0.21	-0.24	0/18
KVSQSVLYESRNKNSVA	NASTRES	QQYHRLPLF	-0.04 / 0.17 / -0.04 / -0.04 / -0.01 / 0.12	0.03	1/18 (3.17)
KLSQSVEYESRNKNSVA	NASTREM	QQYHRLPLS	1.41 / 0.69 / 1.15 / 1.05 / 0.55 / 0.80	0.94	0/18
KLEQSQLYESRNCNSVA	NASTRES	QQYHRLPLS	1.35 / 1.15 / 1.23 / 1.18 / 0.91 / 1.97	1.30	1/18 (2.46)
KLSQSVLYESRVKNSVA	EASTRES	QQYHRLPLS	-0.09 / -0.27 / -0.18 / -0.48 / -0.21 / -0.29	-0.25	0/18
KLSQSELYESRNKNSVA	NASERES	QQYHRLPLS	-0.28 / -0.17 / -0.32 / -0.47 / -0.20 / -0.14	-0.26	1/18 (1.77)
KLSQSVLYESRNKNSVA	NASERES	QQYHRLPLS	0.04 / -0.07 / -0.07 / -0.11 / -0.27 / -0.08	-0.09	2/18 (2.78)
KLYQSVLYESRNKNSVA	QASTRES	QQYHRLPLS	-0.01 / -0.02 / -0.29 / -0.13 / -0.30 / 0.02	-0.12	0/18
KLQQSVLYESRNKNNVA	EASTRES	QQYHRLPLS	-0.13 / -0.38 / -0.23 / -0.37 / -0.39 / -0.24	-0.29	3/18 (3.76)
KLSQSPLYESRNKNSVA	NASTRES	QQYHRLPLS	0.08 / 0.23 / 0.04 / -0.08 / -0.11 / 0.05	0.04	1/18 (3.77)
KLYQSWLYESRNKNSVA	NASQRLS	QQYHRLPLS	0.35 / 0.14 / 0.04 / 0.13 / 0.25 / 0.19	0.18	2/18 (3.44)
KISQSVLYEDRNKNSVA	NASTRLS	QQYHRLPLS	-0.10 / 0.05 / -0.29 / -0.22 / -0.19 / 0.00	-0.13	1/18 (2.77)
KLSQSVDYESRNKNSVA	EASTREQ	QQYHRLPLS	0.32 / 0.12 / -0.16 / -0.18 / -0.04 / 0.07	0.02	0/18
KLMQSVLYESRNKNSVA	NGSTRES	QQYHRLPLS	-0.19 / -0.29 / -0.26 / -0.36 / -0.42 / -0.12	-0.27	0/18
KLSQSWLYESRNKNSVA	GASQRES	QQYHRLPLS	-0.28 / -0.26 / -0.40 / -0.32 / -0.10 / -0.29	-0.28	2/18 (2.72)
KLSQSVLYESRNKNSVA	EASTRET	QQYHRLPLS	0.09 / -0.06 / -0.02 / -0.03 / -0.12 / 0.07	-0.01	3/18 (3.45)
KVSQSFLYESRNKNSVA	GASTRES	QQYHRLPLS	0.17 / -0.16 / -0.10 / -0.14 / 0.09 / 0.17	0.01	1/18 (4.41)
KLPQSDLYESRNKNSVA	NASTREQ	QQYHRLPLS	-0.68 / -0.56 / -0.85 / -1.01 / -0.78 / -0.52	-0.73	0/18
KLSQSELYESRNKNSVA	NASLRMS	QQYHRLPLS	0.29 / 0.42 / 0.31 / 0.04 / 0.13 / 0.43	0.27	0/18
KMSQSVLYESRNKNSVA	NASQRMS	QQYHRLPLS	-0.02 / -0.16 / -0.17 / -0.42 / -0.19 / -0.12	-0.18	3/18 (2.29)
KFPQSVLYESRNKNSVA	NASTRES	QQYHRLPLS	0.26 / 0.24 / 0.27 / 0.48 / 0.17 / 0.36	0.30	3/18 (2.74)
KLSQSELYESRNKNSVA	NASTREY	QQYHRLPLS	0.14 / 0.07 / 0.18 / 0.02 / 0.28 / 0.34	0.17	1/18 (2.36)
KLPQSWLYESRNKNSVA	NASQRED	QQYHRLPLS	0.00 / 0.19 / -0.48 / -0.32 / -0.35 / 0.22	-0.13	2/18 (2.52)
KMYQSELYESRNKNSVA	NASQRES	QQYHRLPLS	0.53 / 0.07 / -0.05 / 0.23 / -0.08 / 0.17	0.14	0/18
ILSQSVLYESRNKNSVA	NASQRES	QQYHRLPLS	-0.33 / -0.58 / -0.42 / -0.54 / -0.65 / -0.21	-0.46	2/18 (1.37)
KVSQSELYESRNKNSVA	NASTRES	QQYHRLPLM	-0.48 / -0.59 / -0.49 / -0.54 / -0.58 / -0.20	-0.48	0/18

4 of these entries, quoted again:

| CDR-L1 | CDR-L2 | CDR-L3 | replicates, log10 nM | log10 Kd (nM), mean | signal with controls |
|---|---|---|---|---|---|
| KLPQSDLYESRNKNSVA | NASTREQ | QQYHRLPLS | -0.68 / -0.56 / -0.85 / -1.01 / -0.78 / -0.52 | -0.73 | 0/18 |
| KLSQSVLYESRNTNNVA | NASTRES | QQYHRLPLS | -0.10 / -0.14 / -0.34 / -0.39 / -0.48 / -0.17 | -0.27 | 0/18 |
| KLSQSVLYESRMKNSVA | NASTRMM | QQYHRLPLS | -0.01 / -0.43 / -0.33 / -0.26 / -0.17 / -0.21 | -0.24 | 0/18 |
| KISQSVLYEDRNKNSVA | NASTRLS | QQYHRLPLS | -0.10 / 0.05 / -0.29 / -0.22 / -0.19 / 0.00 | -0.13 | 1/18 (2.77) |

From the AlphaSeq antibody data of Li et al. 2023 (doi:10.1038/s41467-023-39022-2), copy in the FLAb collection.